Earlier results, collected in patent US8022029B2, “Fabric softening compositions comprising polymeric materials” (priority 2007, dated 2011).

Conditions: Table 4; cited from earlier work

## C=CCc1ccc(O)c(OC)c1 [Eugenol, eugenol]
  Log P: 2.30
